## scFv variants of Ab-14 (light chain) against a SARS-CoV-2 spike peptide

Target: peptide PDVDLGDISGINAS, taken from heptad repeat 2 (HR2) of SARS-CoV-2 spike.

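The parent was found by panning a naive human phage display library on the peptide. This is the validation round: designs drawn from the data on random variants, tested in the same kind of assay. Group labels follow the data file (En: ensemble of fine-tuned language models; GP: Gaussian process model; HC: hill climbing; Gen: genetic algorithm; Gibbs: Gibbs sampling; a sequence that several methods proposed may carry one label only). AlphaSeq pools MATa yeast showing the antibodies with MATalpha yeast showing the peptide. Mating (16 h, 30 °C) was followed by selection of diploids and sequencing of their barcodes. Read counts were normalised to the haploid input and turned into Kd by a linear fit to BCL2-family pairs of known affinity, for each replicate. Mating was done six times.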

Each scFv is VH, the linker GGGGSGGGGSGGGGS, VL, as in the parent Ab-14, and differs from it in the CDRs of the light chain only.
VH: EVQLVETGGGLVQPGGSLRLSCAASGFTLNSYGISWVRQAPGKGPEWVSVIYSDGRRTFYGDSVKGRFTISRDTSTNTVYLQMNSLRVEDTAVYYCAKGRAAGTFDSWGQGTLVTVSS
VL: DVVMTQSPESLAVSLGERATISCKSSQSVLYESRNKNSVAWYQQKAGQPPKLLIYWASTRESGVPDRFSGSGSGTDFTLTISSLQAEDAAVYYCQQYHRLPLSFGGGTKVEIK

Each variant is given by its three light chain CDRs, as the data file delimits them; those of the parent are KSSQSVLYESRNKNSVA, WASTRES, QQYHRLPLS.
Variants here have more than six changes.
Values are log10 of the apparent Kd in nM; lower means stronger binding.
The mean shown is taken over the replicates in which the pair was detected.
An entry "no signal" has no value in the source: the pair was not observed among the diploids in any replicate. This suggests poor binding but is not conclusive.
Order: sorted from the lowest average up, undetected variants last.
Empty control strains, which show no peptide, gave a signal in 4% of pairings with all light chain designs; the median was 2.64 and 95% of these signals were weaker than 1.59. No background was subtracted.
Values of this round are not directly comparable with the first-round values of the same sequences.
The authors averaged sequences with at least three values out of six and counted those with two or fewer as poor binders.

For KLVQHGDYESRNKNNVA, QASQREQ, QQYHRLPLS [GP_Gibbs], the assay gave -0.65 (6 of 6 replicates).
For KVSQSMEYQSRNKNNVA, EASTREQ, QSYHRLPLS [GP_Gibbs], the assay gave -0.32 (6 of 6 replicates).
For KLSQSQEYESRNKNSVA, NASTRLT, QQYHRLPLE [GP_Gibbs], the assay gave -0.23 (6 of 6 replicates).
For QLGAVQDMTSKNKNSVA, EQSTREN, QQYHRLPLS [En_HC], the assay gave -0.21 (6 of 6 replicates).
For KLDMSDLMESRNWNAVA, SASTREE, QQYHRLPLS [GP_Gibbs], the assay gave -0.13 (6 of 6 replicates).
For KLTSITGTEKVRGNNVA, EMETREN, QQYNRLPLS [En_Gen], the assay gave -0.11 (6 of 6 replicates).
For KWQWGWLYESRNKNSVA, EGSTRES, QQYHRLPLS [GP_Gibbs], the assay gave -0.11 (6 of 6 replicates).
For KLSQSWEYLSRNSNAVA, NASQREQ, QQYHRLPLS [GP_Gibbs], the assay gave -0.03 (6 of 6 replicates).
For KQQQSDEGMQRNKNSVA, EASTREM, QQYHRLPLS [GP_Gibbs], the assay gave -0.03 (6 of 6 replicates).
For MLTWDDDHETSRQNSIA, DAHERNT, QQYHQLPLI [En_Gibbs], the assay gave 0.00 (6 of 6 replicates).
For KLGGVTEYEMRNKNSVA, QMTTREQ, QQYHRLPLS [En_HC], the assay gave 0.06 (6 of 6 replicates).
For KLGAMTAIESRNLNSVA, QMDTRES, QQYHRLPLS [En_HC], the assay gave 0.08 (6 of 6 replicates).
For KLSMITGHMQQSKNNVA, EMVTREN, QQYNRLPLS [En_Gen], the assay gave 0.17 (6 of 6 replicates).
For SLMDNPWVEDHYRKAIA, DINVRAD, QQYHRLPLS [En_Gibbs], the assay gave 0.18 (6 of 6 replicates).
For KQQISVDQESRQKNSVA, NASTRCE, QQYHRLPLS [GP_Gibbs], the assay gave 0.24 (6 of 6 replicates).
For KLQWYNTLATYSAQNIA, DGAQRLN, QQYMRLPLM [En_Gibbs], the assay gave 0.25 (6 of 6 replicates).
For KLQQSVEYEARNQNSVA, SASTRLD, QQYHRLPLS [GP_Gibbs], the assay gave 0.27 (6 of 6 replicates).
For KLSMITGHMSMSRNNVA, EMVTREN, QQYDRLPLA [En_Gen], the assay gave 0.28 (6 of 6 replicates).
For KLSNSKWYESRMKNQVA, EASTREM, QQYHRLPLS [GP_Gibbs], the assay gave 0.35 (6 of 6 replicates).
For KLMWSMEYESRNQNSVA, SASYRES, QQYHRLPLS [GP_Gibbs], the assay gave 0.41 (6 of 6 replicates).
For NLSGMTAHESVKSKNVA, ERSTREE, QQYNRLPLS [En_Gen], the assay gave 0.41 (6 of 6 replicates).
For KLQNSMLYESRNDNSVA, DASMRES, QQYHRLPLF [GP_Gibbs], the assay gave 0.45 (6 of 6 replicates).
For KLYQATALTSSVRNNVA, DLNERER, QQYFRLPLS [En_HC], the assay gave 0.53 (6 of 6 replicates).
For ALELFEYQIMKDINSIA, NTETKTN, QQYVRLPFS [En_Gibbs], the assay gave 0.63 (6 of 6 replicates).
For KIGMTLNTLMHQKNNVA, DLVNREN, QQYFRLPLS [En_Gen], the assay gave 0.76 (6 of 6 replicates).
For QISQLMNLSMHQVNNVA, QMTTREK, QQYDRLPLS [En_Gen], the assay gave 0.77 (6 of 6 replicates).
For MLLQATMYGERNRNSVA, HASTRED, QQYHRLPLI [En_HC], the assay gave 0.79 (6 of 6 replicates).
For SSNGNLRMGERNKNHVA, STDVRES, QQYSRLPLT [En_Gibbs], the assay gave 0.93 (4 of 6 replicates).
For HMSALTMLGMHQRNSVA, QMTTREN, QQYDRLPLA [En_Gen], the assay gave 0.94 (6 of 6 replicates).
For KIYQGINTHMGAHSSIA, QEETRLE, QQYAHLPLS [En_Gen], the assay gave 0.98 (6 of 6 replicates).
For IVSQLMLWGMKAKNSIA, EAELRLN, QQYDRLPLI [En_Gen], the assay gave 1.07 (6 of 6 replicates).
For IVSQVMSWGIHAKNSIA, EAQTRCN, QQYDRLPLF [En_Gen], the assay gave 1.20 (6 of 6 replicates).
For HITMGMYVSGRYKSNIA, QAETRES, QQYDRLPLI [En_Gen], the assay gave 1.24 (6 of 6 replicates).
For QVFFNLFEQGKRSQPIA, GTSMRET, QQYARLPLI [En_Gibbs], the assay gave 1.25 (6 of 6 replicates).
For IISQVDDYLSRQTNSIA, DQSTRGS, QQYDRLPLS [En_HC], the assay gave 1.28 (6 of 6 replicates).
For TISQSMLYLSNLKNSVA, QAETRVS, QQYHRLPIS [En_HC], the assay gave 1.32 (6 of 6 replicates).
For MFSDLVKMGSRNTNSVA, DNSTRGS, QQYDRLPLS [En_HC], the assay gave 1.35 (6 of 6 replicates).
For MISQVMNTLTRNGNNVA, DLAERED, QQYFRLPLS [En_Gen], the assay gave 1.39 (6 of 6 replicates).
For IFSQGVMVGWLTRNSVA, NSSTRES, QQYHRLPLS [En_HC], the assay gave 1.57 (6 of 6 replicates).
For LIKGMVDGQYYWQNNIA, DSEERDR, QQYNQLPLS [En_Gibbs], the assay gave 1.70 (6 of 6 replicates).
For QLDQAYRVGDLWKQSIA, HGSMRVQ, QCYERLPLS [En_Gibbs], the assay gave 1.70 (6 of 6 replicates).
For KISMLMNFAQTNKNSIA, EMTTRES, QHYHRLPLS [En_HC], the assay gave 1.88 (6 of 6 replicates).
For KVTTNLEHQAQRDNSIA, EADMVAA, QDYMRLPLI [En_Gibbs], the assay gave 2.06 (6 of 6 replicates).
For MVSQLMNLGQFAINSVA, QATIRNS, QQYDRLPLA [En_Gen], the assay gave 2.30 (2 of 6 replicates).
For MLSGVLHMLGAKKNSIA, DLVMRAN, QQYHRLPLM [En_Gen], the assay gave no signal (0 of 6 replicates).

The opening 3 entries, copied out:

Variant KLVQHGDYESRNKNNVA, QASQREQ, QQYHRLPLS [GP_Gibbs] showed -0.65 (6 of 6 replicates).
Variant KVSQSMEYQSRNKNNVA, EASTREQ, QSYHRLPLS [GP_Gibbs] showed -0.32 (6 of 6 replicates).
Variant KLSQSQEYESRNKNSVA, NASTRLT, QQYHRLPLE [GP_Gibbs] showed -0.23 (6 of 6 replicates).

From the AlphaSeq antibody data of Li et al. 2023 (doi:10.1038/s41467-023-39022-2), copy in the FLAb collection.